Our source for the inhibition values is PubChem BioAssay AID504445 (The Scripps Research Institute Molecular Screening Center, 2011).

By UniProt entry, the sequences of proteins in these tests, tags left out. Where a name states a change or a piece, a line headed by the entry shows the natural chain unless it says otherwise.
UniProt Q8NCG7: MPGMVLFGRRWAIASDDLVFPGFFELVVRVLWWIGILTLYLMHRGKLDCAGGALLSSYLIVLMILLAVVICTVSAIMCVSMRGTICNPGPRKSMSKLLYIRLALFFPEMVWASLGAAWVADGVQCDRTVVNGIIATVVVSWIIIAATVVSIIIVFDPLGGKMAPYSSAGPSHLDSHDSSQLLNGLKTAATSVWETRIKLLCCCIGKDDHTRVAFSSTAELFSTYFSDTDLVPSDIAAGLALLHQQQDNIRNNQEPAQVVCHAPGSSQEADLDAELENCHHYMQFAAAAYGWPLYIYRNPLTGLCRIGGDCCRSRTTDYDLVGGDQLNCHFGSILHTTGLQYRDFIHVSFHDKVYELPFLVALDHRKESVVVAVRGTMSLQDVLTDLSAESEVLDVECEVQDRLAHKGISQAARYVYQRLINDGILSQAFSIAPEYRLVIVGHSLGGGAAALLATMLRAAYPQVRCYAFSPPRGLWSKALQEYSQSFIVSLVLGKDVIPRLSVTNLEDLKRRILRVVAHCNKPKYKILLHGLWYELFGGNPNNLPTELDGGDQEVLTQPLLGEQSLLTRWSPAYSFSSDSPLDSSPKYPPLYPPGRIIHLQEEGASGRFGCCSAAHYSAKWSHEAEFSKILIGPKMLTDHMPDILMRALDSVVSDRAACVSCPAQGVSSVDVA

This experiment has as its target Diacylglycerol lipase-beta (Homo sapiens) (UniProt Q8NCG7). As to the kind of experiment: human DAGLB lipase activity inhibition – biochemical, fluorescence, HEK293T membranes, confirmation (AID 504445).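 Note: 0% = DAGLB with DMSO and 100% = wells lacking DAGLB enzyme.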 The following applies: HEK293T DAGLB membrane lysate, EnzChek fluorogenic substrate; at 5.17 µM; hits give high values.

Only a part is listed here, and it is no random draw. Active and inactive are the calls of the source.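 Rule for the calls: active = mean inhibition over triplicate wells above a set limit taken from the primary lipase screen (cut at about 34% in these data); inactive = the rest.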

Regarding `O=[N+]([O-])c1ccc(-c2cc([N+](=O)[O-])c(O)c([N+](=O)[O-])c2)cc1`, the inhibition (in general, the relative decrease from the control value, in per cent) was active: 66.3%.
